The numbers were not newly measured in PMC12037675, “Design of self-emulsifying oral delivery systems for semaglutide: reverse micelles versus hydrophobic ion pairs” (Drug Delivery and Translational Research, 2024), which cites them from elsewhere.

The conditions of this series: hydrophobic ion pairs; cited from earlier work. An excerpt:
Administration of therapeutic (poly)peptides is still widely limited to the parenteral route even though oral administration is both favored from a patient as well as from a commercial point of view. So far mostly endocrine disorders and in particular diabetes have been targeted by oral (poly)peptide drug delivery. Administration of (poly)peptides such as insulin or GLP-1 analogues via the oral pathway, however, is challenging because of the inactivation of these therapeutic agents under harsh pH conditions, degradation by proteolytic enzymes, thiol/disulfide exchange reaction ... || It was therefore the aim of this study to evaluate the potential of reverse micelles versus HIP for the formation of lipophilic complexes to be incorporated into SEDDS. Among GLP-1 analogues semaglutide was chosen as model drug, since a marketed oral formulation (Rybelsus®) is already available. Besides its use for treatment of type 2 diabetes, this peptide has recently gained huge attention as anti-obesity drug.

Take insulin: the “Improvement in oral bioavailability by ion pairing” value is “up to 8 fold”.
